Results as given in US8778958B2, “Synthesis of metabolically stable agents for alcohol and drug abuse” (priority 2008, dated 2014).
Like-named read-outs stand apart in the source and are kept apart here.

Sequences of proteins named here, by UniProt entry; tags and fusion partners are left off. A change or cut given only in a name is not applied to a line headed by its entry.
UniProt P35372, whole entry: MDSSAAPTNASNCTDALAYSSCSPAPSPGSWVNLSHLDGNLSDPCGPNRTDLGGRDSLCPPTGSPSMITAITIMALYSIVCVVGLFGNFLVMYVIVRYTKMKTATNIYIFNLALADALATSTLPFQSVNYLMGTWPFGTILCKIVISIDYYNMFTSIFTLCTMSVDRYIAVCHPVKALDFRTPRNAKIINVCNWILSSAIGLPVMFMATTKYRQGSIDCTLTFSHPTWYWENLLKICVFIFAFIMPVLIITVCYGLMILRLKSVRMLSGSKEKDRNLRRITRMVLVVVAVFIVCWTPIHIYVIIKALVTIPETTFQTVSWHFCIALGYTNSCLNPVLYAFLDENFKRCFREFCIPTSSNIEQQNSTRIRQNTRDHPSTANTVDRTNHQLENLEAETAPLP
UniProt P32300, whole entry: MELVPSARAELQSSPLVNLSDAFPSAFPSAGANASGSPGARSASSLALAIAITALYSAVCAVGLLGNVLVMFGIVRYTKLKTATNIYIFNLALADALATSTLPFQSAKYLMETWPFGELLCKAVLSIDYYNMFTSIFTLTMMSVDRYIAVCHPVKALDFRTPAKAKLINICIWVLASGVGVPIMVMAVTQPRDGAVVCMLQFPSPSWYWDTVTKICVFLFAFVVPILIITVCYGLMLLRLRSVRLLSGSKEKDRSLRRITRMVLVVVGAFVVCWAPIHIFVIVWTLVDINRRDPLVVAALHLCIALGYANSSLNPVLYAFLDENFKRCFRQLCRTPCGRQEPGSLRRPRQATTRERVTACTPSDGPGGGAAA
UniProt P33534: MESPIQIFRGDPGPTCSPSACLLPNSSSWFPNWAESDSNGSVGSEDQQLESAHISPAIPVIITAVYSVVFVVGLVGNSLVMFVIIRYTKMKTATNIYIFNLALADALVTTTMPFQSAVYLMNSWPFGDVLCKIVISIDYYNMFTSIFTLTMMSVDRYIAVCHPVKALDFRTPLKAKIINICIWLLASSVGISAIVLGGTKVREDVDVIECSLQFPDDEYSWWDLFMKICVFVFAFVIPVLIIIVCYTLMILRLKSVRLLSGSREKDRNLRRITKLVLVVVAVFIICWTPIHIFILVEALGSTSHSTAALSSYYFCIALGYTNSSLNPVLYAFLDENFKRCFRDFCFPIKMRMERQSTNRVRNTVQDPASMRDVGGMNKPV
UniProt P42866, whole entry: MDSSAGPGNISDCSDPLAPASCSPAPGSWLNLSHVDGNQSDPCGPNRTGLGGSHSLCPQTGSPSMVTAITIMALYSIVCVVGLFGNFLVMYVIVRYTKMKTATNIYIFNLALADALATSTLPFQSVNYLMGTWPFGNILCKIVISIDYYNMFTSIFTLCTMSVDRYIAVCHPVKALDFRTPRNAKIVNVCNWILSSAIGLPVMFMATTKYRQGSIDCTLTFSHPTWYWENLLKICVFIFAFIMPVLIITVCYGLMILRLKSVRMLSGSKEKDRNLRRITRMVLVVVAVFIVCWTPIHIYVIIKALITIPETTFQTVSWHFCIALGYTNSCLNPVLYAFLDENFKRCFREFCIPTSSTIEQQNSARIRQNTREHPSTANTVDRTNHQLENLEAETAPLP
UniProt P41146: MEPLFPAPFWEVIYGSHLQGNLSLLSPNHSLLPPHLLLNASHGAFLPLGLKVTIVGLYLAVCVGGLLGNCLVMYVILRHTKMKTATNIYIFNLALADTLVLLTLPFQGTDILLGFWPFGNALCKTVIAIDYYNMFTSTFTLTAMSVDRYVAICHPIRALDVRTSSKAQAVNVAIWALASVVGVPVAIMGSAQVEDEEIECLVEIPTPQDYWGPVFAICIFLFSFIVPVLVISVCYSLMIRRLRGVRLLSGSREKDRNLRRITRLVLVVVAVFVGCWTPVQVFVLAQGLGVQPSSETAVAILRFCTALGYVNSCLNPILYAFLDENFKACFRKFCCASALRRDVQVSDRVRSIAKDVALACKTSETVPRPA
UniProt P10635, whole entry: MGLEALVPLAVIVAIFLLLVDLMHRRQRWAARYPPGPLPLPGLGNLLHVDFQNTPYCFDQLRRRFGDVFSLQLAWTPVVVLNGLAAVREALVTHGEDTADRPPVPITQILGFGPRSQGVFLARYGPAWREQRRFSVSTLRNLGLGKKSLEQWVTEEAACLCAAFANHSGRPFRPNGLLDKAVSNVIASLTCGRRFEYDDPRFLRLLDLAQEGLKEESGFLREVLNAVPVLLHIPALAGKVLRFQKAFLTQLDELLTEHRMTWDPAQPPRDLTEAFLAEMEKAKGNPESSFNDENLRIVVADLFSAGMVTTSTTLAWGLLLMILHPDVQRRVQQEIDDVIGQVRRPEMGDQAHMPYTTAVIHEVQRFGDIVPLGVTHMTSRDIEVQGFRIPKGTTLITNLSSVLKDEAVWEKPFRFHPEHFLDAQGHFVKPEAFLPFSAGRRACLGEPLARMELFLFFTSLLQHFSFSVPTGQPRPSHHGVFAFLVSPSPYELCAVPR

Legend:
μ-opioid receptor [1] = target: T1, μ-opioid receptor (Homo sapiens, UniProt P35372); experiment: biochemical; format: binding; conditions: Ki (nM) ± SEM, Table 1a, two determinations
T1 construct: expressed in transfected cells; host or cells: CHO cells

δ-opioid receptor [2] = target: T2, δ-opioid receptor (Mus musculus, UniProt P32300); experiment: biochemical; format: biochemical, human; conditions: for EC50: read-out: EC50, δ, stimulation of [35S]GTPγS binding; for Emax: read-out: Emax, δ, stimulation of [35S]GTPγS binding
T2 construct: hemagglutinin (HA); expressed in transfected cells

κ-opioid receptor [3] = target: T3, κ-opioid receptor (Mus musculus, UniProt P33534); experiment: biochemical; design: species or system human; conditions: for EC50: read-out: EC50, κ, stimulation of [35S]GTPγS binding
T3 construct: FLAG; expressed in transfected cells

δ-opioid receptor [4] = target: T2, δ-opioid receptor; experiment: biochemical; design: species or system human; conditions: for EC50: read-out: EC50, δ, inhibition of basal [35S]GTPγS binding; for Emax: read-out: Emax, δ, inhibition of basal [35S]GTPγS binding
μ-opioid receptor [5] = target: T4, μ-opioid receptor (Mus musculus, UniProt P42866); experiment: biochemical; format: biochemical, human; design: FLAG; expressed in transfected cells; conditions: for EC50: read-out: EC50, μ, stimulation of [35S]GTPγS binding; for Emax: read-out: Emax, μ, stimulation of [35S]GTPγS binding, percentage of basal [35S]GTPγS binding stimulation
[6] = tested on: rats trained to self-administer a 10% (w/v) ethanol solution; experiment: Operant oral ethanol self-administration; conditions: for ED50: Rattus norvegicus, po, read-out: ED50, inhibition of alcohol self-administration
κ-opioid receptor [7] = tested on: T5, κ-opioid receptor; experiment: biochemical; design: species or system human; conditions: read-out: Emax, κ, inhibition of basal [35S]GTPγS binding
T5 construct: FLAG; expressed in transfected cells

μ-opioid receptor [8] = target: T4, μ-opioid receptor; experiment: biochemical; design: FLAG; expressed in transfected cells; species or system human; conditions: for Emax: read-out: Emax, μ, inhibition of basal [35S]GTPγS binding
[9] = target: T6, NOP (nociceptin) receptor (Homo sapiens, UniProt P41146)
[10] = target: T6, NOP (nociceptin) receptor; experiment: Inhibition of basal [35S]GTPγS binding (inverse agonism), NOP; format: biochemical; design: FLAG; expressed in transfected cells; conditions: read-out: Emax, NOP, inhibition of basal [35S]GTPγS binding
κ-opioid receptor [11] = target: T3, κ-opioid receptor; experiment: biochemical; design: species or system human; conditions: read-out: EC50, κ, inhibition of basal [35S]GTPγS binding
δ-opioid receptor [12] = target: T2, δ-opioid receptor; experiment: biochemical; design: species or system human
κ-opioid receptor [13] = target: T3, κ-opioid receptor; experiment: biochemical; design: species or system human
μ-opioid receptor [14] = target: T4, μ-opioid receptor; experiment: biochemical
CYP2D6 = CYP2D6 (Homo sapiens, UniProt P10635); experiment: CYP inhibition, CYP2D6 (Vivid Blue substrate); conditions: 10 μM test compound; ND = no detectable inhibition
[15] = tested on: rats trained to orally self-administer a 0.025% saccharin solution; experiment: Operant oral saccharin self-administration (control); conditions: dose 25 μg/kg, rat
[16] = read-out: Emax, κ, stimulation of [35S]GTPγS binding, percentage of basal [35S]GTPγS binding stimulation

Structure (SMILES) | Ki (μ-opioid receptor [1]) [nM] | EC50 (δ-opioid receptor [2]) [nM] | EC50 (μ-opioid receptor [5]) [nM] | ED50 [6] [mg/kg] | Emax (κ-opioid receptor [3]; [16]) [%] | Emax (δ-opioid receptor [4]) [%] | Emax (κ-opioid receptor [7]) [%] | Emax (μ-opioid receptor [5]) [%] | also measured
O=C(N[C@@H]1CC[C@@]2(O)[C@H]3Cc4ccc(O)c5c4[C@@]2(CCN3CC2CC2)[C@H]1O5)c1ccc(Br)cc1 [Compound 6, 6-β-(4′-Bromo)benzamido-14-hydroxy-17-(cyclopropylmethyl) nordesmorphine] | 0.3 to 1.09 | 0.2 ± 0.1 | 4.5 ± 0.5 | 0.042 | – | – | – | – | EC50 (κ-opioid receptor [3]): 0.1 ± 0.1 nM; EC50 (δ-opioid receptor [4]): 66 ± 1.8 nM
O=C(N[C@@H]1CC[C@@]2(O)[C@H]3Cc4ccc(O)c5c4[C@@]2(CCN3CC2CC2)[C@H]1O5)c1ccc(I)cc1 [Compound 7, 6-β-(4′-Iodo)benzamido-14-hydroxy-17-(cyclopropylmethyl)nordesmorphine] | 0.3 to 1.09 | 5.1 ± 2.9 | 8.8 ± 1.7 | 0.038 | 28 ± 3.1 | 0 | 0 | 53 ± 2.8 | Emax, δ, stimulation of [35S]GTPγS binding (δ-opioid receptor [2]): 45 ± 6.2%; EC50 (κ-opioid receptor [3]): 29 ± 3.4 nM; Emax (κ-opioid receptor [3]; read-out: Emax, κ, stimulation of [35S]GTPγS binding): 28 to 63%; Emax (μ-opioid receptor [8]): 0%; Number of ethanol self-administrations ([6]; dose 25 μg/kg s.c., rat): 24.7 ± 3.7^
O=C(N[C@@H]1CC[C@@]2(O)[C@H]3Cc4ccc(O)c5c4[C@@]2(CCN3CC2CC2)[C@H]1O5)c1ccc(Cl)cc1 [Compound 10, 6-β-(4′-Chloro)benzamido-14-hydroxy-17-(cyclopropylmethyl)nordesmorphine] | – | – | – | 0.5 | – | – | – | – | Emax [9]: 0%; Emax [10]: 320 ± 6.8%
O=C(N[C@@H]1CC[C@@]2(O)[C@H]3Cc4ccc(O)c5c4[C@@]2(CCN3CC2CC2)[C@H]1O5)c1ccc(C(F)(F)F)cc1 [Compound 5, 6-β-(4′-Trifluoromethyl)benzamido-14-hydroxy-17-(cyclopropylmethyl)nordesmorphine] | 0.3 to 1.09 | – | 16 ± 2.1 | 0.019 | – | 0 | 0 | 63 ± 14 | Emax (μ-opioid receptor [8]): 0%
Cc1ccc(C(=O)N[C@@H]2CC[C@@]3(O)[C@H]4Cc5ccc(O)c6c5[C@@]3(CCN4CC3CC3)[C@H]2O6)cc1 [Compound 4, 6-β-(4′-Methyl)benzamido-14-hydroxy-17-(cyclopropylmethyl) nordesmorphine] | 0.3 to 1.09 | 0.14 ± 0.1 | – | 0.25 | 0 | – | 20 ± 1.2 | 0 | Emax (δ-opioid receptor [2]): 10 ± 9.6%; EC50 (κ-opioid receptor [11]): 2.4 ± 0.4 nM; Ki (δ-opioid receptor [12]): 0.1 ± 0.02 nM; Ki (κ-opioid receptor [13]): 0.015 ± 0.0014 nM; Ki (μ-opioid receptor [14]): 6.2 ± 1.9 nM; EC50 (μ-opioid receptor [8]; read-out: EC50, μ, inhibition of basal [35S]GTPγS binding): 8.9 ± 0.2 nM
C=C1CC[C@@]2(O)[C@H]3Cc4ccc(O)c5c4[C@@]2(CCN3CC2CC2)[C@H]1O5 [Compound 1b, nalmefene, reference compound] | – | – | – | – | – | – | – | – | Percent Inhibition CYP2D6 (CYP2D6): 31%; Number of saccharin self-administrations in one hour [15]: 7.3 ± 1.9
CC(C)(C)c1ccc(C(=O)N[C@@H]2CC[C@@]3(O)[C@H]4Cc5ccc(O)c6c5[C@@]3(CCN4CC3CC3)[C@H]2O6)cc1 [Compound 8, 6-(4′-t-Butyl)benzamido-14-hydroxy-17-(cyclopropylmethyl)nordesmorphine] | 0.3 to 1.09 | – | – | 0.05 | 0 | 28 ± 9.1 | 60 ± 2.6 | 0 | Emax (δ-opioid receptor [2]): 0%; EC50 (δ-opioid receptor [4]): 0.3 ± 0.1 nM; EC50 (κ-opioid receptor [11]): 0.4 ± 1.2 nM
